# Measured affinities in a library of Ab-14 heavy chain variants

Antigen: PDVDLGDISGINAS, a 14-residue peptide of the SARS-CoV-2 spike HR2 region.

Ab-14 is the parent antibody, in scFv form: VH, then three GGGGS repeats, then VL. The light chain is unchanged in all variants.
VH: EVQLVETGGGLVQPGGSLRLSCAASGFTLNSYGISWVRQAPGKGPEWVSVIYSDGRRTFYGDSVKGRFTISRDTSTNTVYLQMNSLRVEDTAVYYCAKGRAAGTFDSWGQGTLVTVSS
VL: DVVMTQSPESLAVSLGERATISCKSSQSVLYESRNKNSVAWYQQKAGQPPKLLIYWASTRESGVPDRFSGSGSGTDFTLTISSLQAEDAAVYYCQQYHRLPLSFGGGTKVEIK

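The parent was found by panning a naive human phage display library on the peptide. Designed CDR sequences, proposed from the first random library and measured here. Several design methods are mixed in this list. The assay is AlphaSeq: two haploid yeast populations carry antibody and antigen on their surface. Pairs that bind mate more often; barcode pairs of the diploids are counted by sequencing. Scores were corrected for input abundance and mapped to Kd with protein pairs of known affinity run in the same pool. Mating was done six times.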

The parent's heavy chain CDRs are GFTLNSYGIS, VIYSDGRRTFYGDSVK, GRAAGTFDS; each variant's own CDRs replace them letter for letter.
Affinities are written as log10 Kd with Kd in nM; a lower number is a better binder.
"nd" means that the variant was in the library but no mating with the target was seen in that replicate; the authors take this as a sign of poor binding, and no number exists.
Of ten entries with the parent sequence, four were seen in most replicates (averages 0.34 to 2.37), three in one and three in none, so single entries are noisy.
In the paper, a design with two or fewer of six values counts as a poor binder.
Three control strains display no target. For all heavy chain designs, 1% of the pairings with them gave a signal, with a median of 2.08 and one signal in twenty below 0.84, so weak values seen in few replicates may be background.
The range of this assay differs from that of the first round, and the authors advise against merging the two.

Result -0.05, -0.14, 0.35, 0.19, 0.07, 0.02, variant GFDLNSYGIS, VIYSDGRRTFYADSVK, GRNAGTFDS.
Result 1.60, 1.85, 1.44, 1.81, 2.42, 2.39, variant GFSLNSYGIS, VIYSDGRRTFYIDSVK, GRIAGTFDS.
Result nd, nd, 3.63, nd, 3.29, nd, variant GFDINEYGVS, VIYADGMRSSYQDKVK, GSNGSLFDV.
Result nd, nd, nd, nd, nd, 2.04, variant GFTLNSYGIS, VIYSDGRKTFYQDSVK, GRAAGTFDS.
Result 2.59, 2.97, 2.74, 3.04, 3.34, nd, variant GFTDNSYGVS, VMYADGRRTFYGDSVK, GRAAGTFDS.
Result nd, nd, nd, nd, nd, nd, variant GFDLNEYGIS, VIYADGRRTQYIDSVK, GETAGTFDQ.
Result 0.68, nd, nd, nd, 2.15, nd, variant GFTLNSYGIS, VIYADGRRTFYGDQVK, GRAAGTFNS.
Result nd, nd, nd, nd, nd, nd, variant GFELDEYGIS, VIYADGKRKAYDNAVK, GKTGGVKLD.
Result nd, nd, nd, nd, nd, nd, variant GFDLNSYGIS, VIYSDGRRTAYGDSVK, GRAAGMFDQ.
Result nd, nd, nd, nd, nd, nd, variant GYDIDEYGIS, VIYADGQRTSYQQNVK, GAGDITGLV.
Result nd, nd, nd, nd, nd, nd, variant GFWLDSYGIS, VIYADGRRTFYQDEVK, GRAAGTFDS.
Result nd, 1.08, nd, nd, 0.15, nd, variant GITLNSYGIS, VIYSDGRRTFYDDSVK, GQLAGTFDS.
Result 0.38, 0.58, 1.28, 0.01, 0.39, 1.26, variant GFTLDEYGIS, VIYADGRRTFYGDSVK, GRTAGTFDS.
Result 0.45, 0.11, 0.52, 0.21, 0.61, 0.52, variant GFEIQDYGIS, VIYADGFRTAYAESVK, GNMGGTFST.
Result -1.06, -0.74, -0.86, -1.42, -0.86, -0.67, variant GFDINEYGIS, VIYADGRRTAYADSVK, GEVAGTFDS.
Result nd, nd, nd, 2.74, nd, nd, variant GFTLESYGIS, VIYSDGRRTFYADDVK, GRAAGTFDS.
Result nd, nd, nd, 2.72, nd, nd, variant GFTLNEYGIS, VIYSDGRRTFYGDSVK, GRAAETFDT.
Result 0.47, 1.20, 0.97, 0.97, 0.63, 0.72, variant KFELNSYGIS, VIYSDGRRTFYSDSVK, GRTAGTFDS.
Result 1.30, 0.86, 0.49, 0.22, 2.06, 0.75, variant GFDLQSYGIS, VIYSDGRRTFYLDSVK, GRAAGTFDS.
Result -0.01, -0.12, 0.01, -0.27, 0.04, 0.15, variant GFDLNSYGIS, VIYSDGRRTFYKDSVK, GKTAGTFDS.
Result nd, nd, nd, nd, nd, 1.22, variant GFTLNSYGIS, VIYSDGRRTFYHDAVK, GGAAGTFDS.
Result nd, nd, nd, nd, nd, nd, variant GFTLESYGIS, VIYSDGRRTFYEGSVK, GRAATTFDS.
Result nd, nd, 0.16, 1.01, 0.60, 0.61, variant GFWLNDYGIS, VIYSDGRRTFYHDSVK, GRTAGTFDS.
Result nd, nd, nd, nd, nd, nd, variant GKSLNSYGIS, VIYSDGRRTFYVDDVK, GRTAGTFDS.
Result nd, 1.09, 1.48, 2.37, 2.09, 1.53, variant GFDIDEYGIS, VIYADGMRTFYTDSVK, GEAAGTFDL.
Result nd, nd, nd, nd, nd, nd, variant GFTLNQYGIS, VHYSDGRRTFYGDSVK, GRAAGTFDQ.
Result 1.00, 1.01, 0.64, 2.23, 0.72, 0.96, variant GFELNSYGIS, VIYSDGRRTFYTDRVK, GEAAGTFDS.
Result -0.11, 0.29, 0.02, -0.22, 0.18, -0.22, variant GFDLNEYGIS, VIYADGKRTAYADSVK, GDNAGTFDV.
Result 1.52, 0.86, 1.21, 1.23, 0.66, 1.37, variant GFSLNSYGIS, VIYSDGRRTFYKDSVK, GQAAGTFDK.
Result 0.20, 0.31, 0.24, -0.35, 0.09, 0.26, variant GFDLNSYGIS, VIYSDGRRTAYGDHVK, GRNAGTFDS.
Result -0.13, -0.31, -0.33, -0.43, 0.03, 0.06, variant GFDLDEYGIS, VIYADGRRTAYADSVK, GEAAGTFDS.
Result 0.35, 0.53, 0.33, 0.38, 0.24, 0.63, variant GFSLNEYGIS, VIYSDGRRTFYGDSVK, GRHAGTFDS.
Result 1.07, nd, -0.53, -1.59, nd, nd, variant GFELNSYGIS, VIYSDGRRTFYGDDVK, GNTAGTFDS.
Result nd, nd, 0.97, 3.23, 0.52, 2.27, variant GFTLDSYGIS, VIYSDGRRTFYMDSVK, GRAAGTFDS.
Result 0.71, nd, nd, nd, nd, -0.02, variant GFGLNSYGIS, VIYSDGRRTFYGDSVK, GMQAGTFDS.
Result nd, nd, nd, nd, nd, nd, variant GFTLNDYGIS, VIYSDGRRTFYIDMVK, GNAAGTFDS.
Result nd, 2.15, nd, nd, nd, nd, variant GFTLNDYGIS, VIYSDGRRTFYGDSVK, NRHADTFDS.
Result -0.88, -0.71, -0.83, -0.83, -0.92, -0.79, variant GFDLEEYGIS, VIYADGQRTAYSDSVK, GNVAGTFDV.
Result nd, nd, nd, nd, nd, nd, variant GFDLDEYGVS, VIYADGMRMAYQNDVK, GQKGDVFFM.
Result 0.39, 0.33, 0.60, 0.46, 0.42, 0.79, variant GFGLNEYGIS, VIYSDGRRTQYIDSVK, GRAAGTFDS.

Values reported by Li et al. 2023, doi:10.1038/s41467-023-39022-2 (FLAb copy).